Assay results published in paper PMC3189208 (PLoS ONE, 2011).

Columns and labels:
[1] = test system: MOR kinase pathways in HEK-MOR cells; assay: DMR after pretreatment with kinase inhibitors (assays J-M); type: cell-based, human; conditions: ligand 10 µM, maximum within 15 min
[2] = test system: MOR G-protein signaling in HEK-MOR cells; conditions: ligand 10 µM

`CN(C(=O)Cc1ccc(Cl)c(Cl)c1)[C@H](CN1CCCC1)c1ccccc1` [ICI 199,441] was tested, and the “maximal DMR response after SB202190 pretreatment vs untreated” value ([1]; 10 µM SB202190 1 hr) was “significantly reduced”, the “maximal DMR response after SP100625 pretreatment vs untreated” value ([1]; 10 µM SP100625 1 hr) was “enhanced” and the “ligand-induced DMR in pertussis toxin (PTx)-pretreated cells” value ([2]; 100 ng/ml PTx 20 hr) was “small N-DMR”. The “ligand-induced DMR in cholera toxin (CTx)-pretreated cells vs untreated” value ([2]; 400 ng/ml CTx 20 hr) was “reduce”.
